ChEMBL document CHEMBL5036318, “Synthesis and Biological Evaluation of Phosphoester and Phosphorothioate Prodrugs of STING Agonist 3',3'-c-Di(2'F,2'dAMP)” (J Med Chem, 2021)

Chains of the proteins cited; added tags and fusions are not shown. Lines headed by an entry give the natural chain unless they say otherwise; changes in a name come on top.
UniProt Q86WV6: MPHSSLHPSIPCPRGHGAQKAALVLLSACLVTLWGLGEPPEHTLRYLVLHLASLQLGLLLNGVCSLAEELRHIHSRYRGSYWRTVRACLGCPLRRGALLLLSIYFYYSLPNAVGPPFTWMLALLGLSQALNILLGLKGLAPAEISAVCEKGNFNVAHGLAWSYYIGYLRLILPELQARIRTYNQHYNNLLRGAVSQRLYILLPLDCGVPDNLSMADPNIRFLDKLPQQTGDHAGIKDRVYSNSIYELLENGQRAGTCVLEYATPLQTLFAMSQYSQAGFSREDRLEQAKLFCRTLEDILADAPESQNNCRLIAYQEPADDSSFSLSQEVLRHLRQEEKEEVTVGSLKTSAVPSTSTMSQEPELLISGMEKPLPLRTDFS

Assays:
[1] = target: T1, Stimulator of interferon genes protein (Homo sapiens, UniProt Q86WV6); assay: Potency index, ratio of test compound EC50 to prodrug EC50 for activation of wild-type human STING expressed in digitonin treated THP1-Dual cells co-expressing IRF3-activated ISRE assessed as IRF3 reporter activation measured after 7 hrs by luciferase reporter gene assay; type: cell-based
[2] = target: T1, Stimulator of interferon genes protein; assay: Potency index, ratio of test compound EC50 to prodrug EC50 for activation of wild-type human STING expressed in HEK293T cells co-expressing IRF3-activated ISRE assessed as IRF3 reporter activation measured after 30 mins by luciferase reporter gene assay; type: cell-based
[3] = target: T1, Stimulator of interferon genes protein; assay: Potency index, ratio of test compound EC50 to prodrug EC50 for activation of wild-type human STING expressed in human THP1-Dual cells co-expressing IRF3-activated ISRE assessed as IRF3 reporter activation measured after 30 mins by luciferase reporter gene assay; type: cell-based
[4] = target: T1, Stimulator of interferon genes protein; assay: Potency index, ratio of test compound EC50 to prodrug EC50 for activation of wild-type human STING expressed in HEK293T cells co-expressing IRF3-activated ISRE assessed as IRF3 reporter activation measured after 7 hrs by luciferase reporter gene assay; type: cell-based
[5] = Potency index, ratio of test compound EC50 to prodrug EC50 for induction of TNF-alpha production in healthy human PBMC incubated for 16 hrs; type: functional

In the case of `CC(C)(C)C(=O)OCO[P@]1(=O)OC[C@H]2O[C@@H](n3cnc4c(N)ncnc43)[C@H](F)[C@@H]2O[P@](=O)(OCOC(=O)C(C)(C)C)OC[C@H]2O[C@@H](n3cnc4c(N)ncnc43)[C@H](F)[C@@H]2O1`, the Ratio EC50 [1] is reported as 32, the Ratio EC50 [2] is reported as 3080 and the Ratio EC50 [3] is reported as 173. For the same compound, the Ratio EC50 [4] was 441.

For `CCC(CC)C(=O)OCO[P@]1(=O)OC[C@H]2O[C@@H](n3cnc4c(N)ncnc43)[C@H](F)[C@@H]2O[P@](=O)(OCOC(=O)C(CC)CC)OC[C@H]2O[C@@H](n3cnc4c(N)ncnc43)[C@H](F)[C@@H]2O1`, the Ratio EC50 [1] was 57, the Ratio EC50 [2] was 1500 and the Ratio EC50 [3] was 179. For the same compound, the Ratio EC50 [4] was 980.

`CC(C)OC(=O)OCO[P@@]1(=O)OC[C@H]2O[C@@H](n3cnc4c(N)ncnc43)[C@H](F)[C@@H]2O[P@](=O)(OCOC(=O)OC(C)C)OC[C@H]2O[C@@H](n3cnc4c(N)ncnc43)[C@H](F)[C@@H]2O1` gave a Ratio EC50 [1] of 10, a Ratio EC50 [2] of 102 and a Ratio EC50 [3] of 20. The Ratio EC50 [4] was 48.

With `CC(C)OC(=O)OCO[P@]1(=O)OC[C@H]2O[C@@H](n3cnc4c(N)ncnc43)[C@H](F)[C@@H]2O[P@](=O)(OCOC(=O)OC(C)C)OC[C@H]2O[C@@H](n3cnc4c(N)ncnc43)[C@H](F)[C@@H]2O1` the Ratio EC50 [1] was 35, the Ratio EC50 [2] was 309 and the Ratio EC50 [3] was 50. The Ratio EC50 [4] was 248.

In the case of `CC(C)(C)C(=O)OCO[P@@]1(=O)OC[C@H]2O[C@@H](n3cnc4c(N)ncnc43)[C@H](F)[C@@H]2O[P@](=O)(OCOC(=O)C(C)(C)C)OC[C@H]2O[C@@H](n3cnc4c(N)ncnc43)[C@H](F)[C@@H]2O1`, the Ratio EC50 [1] is reported as 22, the Ratio EC50 [2] is reported as 1330 and the Ratio EC50 [3] is reported as 105. The “Ratio EC50” value [5] was 133 and the Ratio EC50 [4] was 209.

Compound `CCC(CC)C(=O)OCO[P@@]1(=O)OC[C@H]2O[C@@H](n3cnc4c(N)ncnc43)[C@H](F)[C@@H]2O[P@](=O)(OCOC(=O)C(CC)CC)OC[C@H]2O[C@@H](n3cnc4c(N)ncnc43)[C@H](F)[C@@H]2O1` has a Ratio EC50 [1] of 21, a Ratio EC50 [2] of 421 and a Ratio EC50 [3] of 55. The Ratio EC50 [4] was 275.
